Laboratory results as given in ChEMBL document CHEMBL1641409, “Synthesis and SAR study of new phenylimidazole-pyrazolo[1,5-c]quinazolines as potent phosphodiesterase 10A inhibitors” (Bioorg Med Chem, 2011).

Chains of the proteins cited; added tags and fusions are not shown. Lines headed by an entry give the natural chain unless they say otherwise; changes in a name come on top.
UniProt Q9Y233: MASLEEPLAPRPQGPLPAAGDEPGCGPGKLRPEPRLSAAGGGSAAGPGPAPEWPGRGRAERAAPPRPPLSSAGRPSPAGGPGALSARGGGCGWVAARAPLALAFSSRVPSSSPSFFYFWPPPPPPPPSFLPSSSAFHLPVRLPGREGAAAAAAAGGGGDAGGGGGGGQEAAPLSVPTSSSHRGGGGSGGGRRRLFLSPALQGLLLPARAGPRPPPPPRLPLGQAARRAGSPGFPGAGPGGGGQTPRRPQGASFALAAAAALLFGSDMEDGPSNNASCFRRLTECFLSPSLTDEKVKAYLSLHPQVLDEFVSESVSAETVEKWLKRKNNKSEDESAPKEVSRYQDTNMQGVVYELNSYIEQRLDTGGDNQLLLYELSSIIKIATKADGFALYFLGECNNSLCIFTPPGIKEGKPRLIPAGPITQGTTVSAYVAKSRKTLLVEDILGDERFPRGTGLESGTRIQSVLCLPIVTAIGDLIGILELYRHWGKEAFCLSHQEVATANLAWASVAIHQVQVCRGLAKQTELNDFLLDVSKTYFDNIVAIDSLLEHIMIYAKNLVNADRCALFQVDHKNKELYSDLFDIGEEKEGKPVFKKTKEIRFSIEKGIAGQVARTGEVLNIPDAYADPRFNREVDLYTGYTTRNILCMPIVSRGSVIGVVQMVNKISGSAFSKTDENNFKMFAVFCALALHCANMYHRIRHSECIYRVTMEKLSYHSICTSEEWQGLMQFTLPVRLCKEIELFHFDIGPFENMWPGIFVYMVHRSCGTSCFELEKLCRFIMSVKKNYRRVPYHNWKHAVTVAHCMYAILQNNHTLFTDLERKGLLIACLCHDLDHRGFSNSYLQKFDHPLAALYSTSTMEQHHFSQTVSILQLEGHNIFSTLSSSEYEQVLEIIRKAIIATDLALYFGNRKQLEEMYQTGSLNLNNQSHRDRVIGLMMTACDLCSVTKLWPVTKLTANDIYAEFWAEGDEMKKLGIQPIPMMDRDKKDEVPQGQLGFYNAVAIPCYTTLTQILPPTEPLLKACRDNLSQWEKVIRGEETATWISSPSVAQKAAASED

Target: cAMP and cAMP-inhibited cGMP 3',5'-cyclic phosphodiesterase 10A (Homo sapiens, UniProt Q9Y233)
Test: Inhibition of human PDE10A expressed in Sf9 cells using [3H]cAMP by scintillation proximity assay

## COc1ccc(Cc2nccc3cc(OC)c(OC)cc23)cc1OC [PAPAVERINE]
  IC50: 17 nM
